Chains of the proteins cited; added tags and fusions are not shown. Lines headed by an entry give the natural chain unless they say otherwise; changes in a name come on top.
UniProt Q07343: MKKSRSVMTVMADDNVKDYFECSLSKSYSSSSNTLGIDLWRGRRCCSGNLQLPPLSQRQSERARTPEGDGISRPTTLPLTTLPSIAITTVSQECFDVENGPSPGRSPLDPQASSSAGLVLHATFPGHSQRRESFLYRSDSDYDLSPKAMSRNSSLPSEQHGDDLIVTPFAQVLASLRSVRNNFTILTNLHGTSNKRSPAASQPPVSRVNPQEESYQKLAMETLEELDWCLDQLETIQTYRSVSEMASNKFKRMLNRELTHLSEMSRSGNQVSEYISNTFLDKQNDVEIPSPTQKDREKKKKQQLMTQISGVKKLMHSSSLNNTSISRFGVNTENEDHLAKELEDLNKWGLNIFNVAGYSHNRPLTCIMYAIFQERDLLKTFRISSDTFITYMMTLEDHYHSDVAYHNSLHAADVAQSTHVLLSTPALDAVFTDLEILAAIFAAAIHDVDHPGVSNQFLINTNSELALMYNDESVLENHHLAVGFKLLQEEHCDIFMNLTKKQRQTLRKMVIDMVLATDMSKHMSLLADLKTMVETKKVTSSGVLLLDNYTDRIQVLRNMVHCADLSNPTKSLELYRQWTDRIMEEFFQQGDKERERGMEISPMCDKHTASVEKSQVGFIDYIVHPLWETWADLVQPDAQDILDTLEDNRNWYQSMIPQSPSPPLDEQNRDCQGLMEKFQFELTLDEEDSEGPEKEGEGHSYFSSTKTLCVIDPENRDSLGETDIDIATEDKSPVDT

According to patent US6051718A, “PDE IV inhibiting 2-cyanoiminoimidazole derivatives” (Janssen Pharmaceutica, N.V., priority 1996, dated 2000):

Biological target: T1, recombinant human MNL phosphodiesterase PDE IV B (Homo sapiens, UniProt Q07343)
T1 construct: made in house
Assay: Inhibition of recombinant human mononuclear lymphocyte (MNL) phosphodiesterase type IV B produced in insect cells with a baculovirus vector
Format: biochemical
Conditions: 3H-cAMP 0.8 μM, 10 minutes, 37° C., pH 8, DMSO 1%
Protocol: Example C.1: Inhibition of Recombinant Human Mononuclear Lymphocyte (MNL) Phosphodiesterase Type IV B Produced in Insect Cells with a Baculovirus Vector
The alleviating and/or curing effect of the instant compounds on allergic and atopic diseases was assessed by an in vitro assay system to detect an inhibiting effect on the recombinant human MNL phosphodiesterase type IV B.
Seventy-two hours after infection with recombinant baculovirus, the insect cells were harvested and pelleted at 500 g for 5 minutes. The cells were lysed in 10 ml lysis-buffer consisting of 20 mM Tris, 10 mM EGTA, 2 mM Na2 EDTA, 1% Triton-X-100, 1 mM Na3 VO4, 10 mM NaF, 2 μg/ml of leupeptine, pepstatine and aprotinine, 0.3 μg/ml benzamidine and 100 μg/ml TPCK pH 7.5. After 5 minutes on ice, solubilized cells were centrifuged at 4000 rpm for 15 minutes at 4° C. The resulting supernatant was filtered through a 0.45 μm filter (Millipore) and brought to TBS buffer (50 mM Tris, 150 mM NaCl pH 7.4).
After washing the column with equilibration buffer, PDE IV was eluted in 1.5 ml fractions containing 37.5 μl 1M Tris pH 8. The fractions were dialyzed overnight against 20 mM Tris, 2 mM Na2 EDTA and 400 mM NaCl pH 7.5 and tested for PDE IV activity. […]
The inhibiting effect of the present compounds on recombinant human MNL phosphodiesterase PDE IV B was measured at different concentrations of the instant compounds.

An IC50 of 18 nM was found for `COc1ccc(C(C)Cn2ccnc2NC#N)cc1OC1Cc2ccccc2C1` (single isomer, unassigned; (+)) [Compound 16, (+)-(A)-[1-[2-[3-[(2,3-dihydro-1H-inden-2-yl)oxy]-4-methoxy-phenyl]-propyl]-1H-imidazol-2-yl]cyanamide] in this work.
An IC50 of 30 nM was found for `COc1ccc(C(C)Cn2ccnc2NC#N)cc1OC1Cc2ccccc2C1` (single isomer, unassigned; (-)) [Compound 17, (-)-(B)-[1-[2-[3-[(2,3-dihydro-1H-inden-2-yl)oxy]-4-methoxy-phenyl]propyl]-1H-imidazol-2-yl]cyanamide] in this work.
